# Target: C-Raf FL (full-length C-Raf with Y340E and Y341E activating mutations) (Homo sapiens (Human), UniProt P04049, Y340E/Y341E)
# The chains behind the UniProt entries cited, without tags or fusion partners.
# UniProt P04049, whole entry Y340E/Y341E: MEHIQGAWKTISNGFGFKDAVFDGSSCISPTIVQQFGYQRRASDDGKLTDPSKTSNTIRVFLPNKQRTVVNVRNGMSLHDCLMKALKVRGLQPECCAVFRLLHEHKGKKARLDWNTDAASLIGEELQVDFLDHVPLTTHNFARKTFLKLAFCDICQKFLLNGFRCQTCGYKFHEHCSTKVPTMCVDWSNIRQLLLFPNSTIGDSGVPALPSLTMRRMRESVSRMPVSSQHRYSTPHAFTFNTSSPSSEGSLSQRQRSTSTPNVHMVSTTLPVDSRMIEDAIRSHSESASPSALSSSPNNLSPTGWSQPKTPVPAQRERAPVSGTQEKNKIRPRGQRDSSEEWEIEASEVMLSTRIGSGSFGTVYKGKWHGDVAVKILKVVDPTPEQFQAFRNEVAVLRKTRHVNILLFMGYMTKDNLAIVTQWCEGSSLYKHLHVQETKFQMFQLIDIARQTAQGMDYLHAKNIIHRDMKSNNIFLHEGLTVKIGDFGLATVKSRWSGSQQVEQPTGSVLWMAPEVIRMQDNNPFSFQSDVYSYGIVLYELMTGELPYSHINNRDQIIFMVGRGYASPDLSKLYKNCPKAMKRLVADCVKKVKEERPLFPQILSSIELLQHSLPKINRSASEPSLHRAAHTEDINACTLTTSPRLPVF
# Type: biochemical
# Conditions: full-length c-Raf 4 pM, ATP 3 uM, 10 nM biotinylated MEK1 kinase dead
row,Structure (SMILES),IC50 [nM]
1,"Cc1ccc(NC(=O)c2cccc(C(F)(F)F)c2)cc1-c1cc(N(C)C)nc(N2CCOCC2)c1 [Example 76, N-(3-(2-(dimethylamino)-6-morpholinopyridin-4-yl)-4-methylphenyl)-3-(trifluoromethyl)benzamide]",0.765
2,"COc1cc(C(=O)Nc2cnc(C)c(-c3cc(N4CCOCC4)c(=O)n(C)c3)c2)ccc1F [Example 182, N-(1′,2-dimethyl-5′-morpholino-6′-oxo-1′,6′-dihydro-[3,3′-bipyridin]-5-yl)-4-fluoro-3-methoxybenzamide]",2.26
3,"Cc1ccc(NC(=O)c2cccc(C(F)(F)F)c2)cc1-c1cncc(N2CCOCC2)n1 [Example 118, N-(4-methyl-3-(6-morpholinopyrazin-2-yl)phenyl)-3-(trifluoromethyl)benzamide]",0.156

# Now from value to molecule:
row,IC50 [nM],Structure (SMILES)
1,0.352,"Cc1ccc(NC(=O)c2cc(C(C)(C)C)on2)cc1-c1cc(N2CCOCC2)nc(N2CCOCC2)n1 [Example 25, 5-(tert-butyl)-N-(3-(2,6-dimorpholinopyrimidin-4-yl)-4-methylphenyl)isoxazole-3-carboxamide]"
2,1.43,"Cc1ccc(NC(=O)c2ccnc(C(C)(C)C#N)c2)cc1-c1cc(N2CCOCC2)c(=O)n(C)n1 [Example 191, 2-(2-cyanopropan-2-yl)-N-(4-methyl-3-(1-methyl-5-morpholino-6-oxo-1,6-dihydropyridazin-3-yl)phenyl)isonicotinamide]"
